Experiments:
Type in all cases: cell-based
Hep3B hepatoma cell line = assay: Inhibition on the proliferation of Hep3B cells (luminescent cell viability assay); conditions: Homo sapiens, 72 hours
Description: The effect of the compounds of the present invention on cell proliferation of Hep3B hepatoma cell line was assessed using a luminescent cell viability assay (Table 2).
(§1) CellTilter-Glo reagent (Promega, Cat. No. G7572) consists of CTG lyophilized powder and CTG buffer. Before use, the lyophilized powder needs to be dissolved in the buffer.
(§2) The compound was diluted with DMSO (Sigma, Cat. No. D5879) to 5 mM, then serially diluted 4 times with DMSO to a minimum concentration of 0.31 μM, and each concentration point was further diluted 50 times with a DMEM medium free of FBS (ThermoFisher, Cat. No. 11995073). If the compound IC50 value was very low, the initial concentration of the compound could be lowered. […]
(§3) After overnight incubation, 3 μL of DMEM diluted compound was added to each well, which was then gently centrifuged to mix well, and then the 384-well plate was placed in a 37° C., 5% CO2 incubator to continue the culture, and after 72 hours, the plate was taken out and allowed to stand at room temperature for 30 minutes, next added 15 μL of CTG reagent per well, which was warmed up to room temperature, the plate was shaken gently on a shaker for 3 minutes to ensure sufficient cell lysis, allowed to stand 10 minutes to stabilize the luminescence signal, and then read the luminescence signal with EnVision (Perkin Elmer). […]

[1] = tested on: RT4 bladder cancer cell line; assay: Inhibition on the proliferation of RT4 cells (luminescent cell viability assay); conditions: Homo sapiens, RT-4, 72 hours
Description: as §1, §2, §3
(§4) The compound IC50 value was calculated from 8 concentration points using XLfit (ID Business Solutions Ltd., UK) software by the following formula: Y=Bottom+(Top−Bottom)/(1+10^((log IC50−X)*slope factor)) […]

[2] = tested on: SNU-16 gastric cancer cell line; assay: Inhibition on the proliferation of SNU-16 cells (luminescent cell viability assay); conditions: Homo sapiens, 72 hours
Description: as §1, §2, §3, §4

C=CC(=O)N1CC[C@H](n2nc(C#Cc3cc(OC)cc(OC)c3)c(C(N)=O)c2NC2CCN(C)CC2)C1 [Compound 34, (S)-1-(1-acryloylpyrrolidin-3-yl)-3-((3,5-dimethoxyphenyl)ethynyl)-5-((1-methylpiperidin-4-yl)amino)-1H-pyrazole-4-carboxamide]
IC50 (Hep3B hepatoma cell line): 10 to 100 nM
IC50 [1]: < 10 nM
IC50 [2]: < 10 nM
